# RAD54 inh: RAD54 (human) branch migration inhibition. 360,000 tested, 0.14% active. RAD54 Holliday junction branch migration, FAM/BHQ fluorescence. Q92698. AID 602329. inhibition, % at 10.4 µM;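 active means mean normalized replicate activity at least 40 and at least half of replicates scoring 40 or more; inconclusive means only one of the two criteria met; inactive means mean below 40 and under half of replicates reaching 40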;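 further: 0% = median of neutral control wells and 100% = median of positive control wells; inhibitors cause a drop in the FAM fluorescence signal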
# PglD inh: inhibitors of Campylobacter jejuni PglD acetyltransferase. purified PglD enzyme, DTNB colorimetric CoA detection. inhibition, % at 12.5 µM. 360,000 tested, 0.098% active. AID 602405; in the data active means inhibition above about 16%, passing the limit was not always enough; inconclusive means no clear call, values can overlap the other calls
# RAD52 inh: inhibitors of human RAD52 DNA annealing | P43351 | recombinant RAD52 DNA annealing, FRET fluorescence | inhibition, % at 18.7 µM | 360,000 tested, 0.46% active | AID 651710;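 active means every replicate showing at least 50% inhibition; inconclusive means mean inhibition at least 50% but not in every replicate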
# Yeast UUG start-1: alters start codon recognition fidelity in yeast. S. cerevisiae UUG-firefly luciferase reporter, luminescence/redox ratio. AID 602363. activity score, % at 18.7 µM. hit rate 0.13% among 350,000;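 active = replicate mean at a twofold rise or more, about +100% in these data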;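 note: firefly luciferase made from a UUG start codon reports start codon fidelity; reporter light over untreated wells divided by growth signal over untreated wells; some hits fall short of that in this replicate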
# GSIS activator: primary screen for activators of insulin secretion dependent on glucose, INS-1E cells, GLuc reporter luminescence | activation, % at 16.6 µM | INS-1E GLuc reporter insulin secretion, 2-3 h | 370,000 tested, 0.61% active;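 active means lowest replicate activation of at least 40%, so every replicate reaches that level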;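 further: 0% = median of neutral control wells and 100% = median of IBMX positive control wells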
# CASP6 VEID inh: blocks human caspase-6 cleavage activity | P55212 | purified caspase-6, Z-VEID-R110 cleavage fluorescence | inhibition, % at 12.5 µM | 350,000 tested, 0.53% active | AID 686996;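 active means mean inhibition across replicates at least about 35%, with every replicate also reaching that limit, limit read from the data; inconclusive means only one of the two criteria met; inactive means neither criterion met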;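 further: 0% = median of neutral control wells and 100% = no fluorescence left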
# Rad54 DNA ctr: DNA binding artifact in Rad54 counter-screen; Acridine orange-DNA displacement, fluorescence polarization, 20 min; shares compounds with RAD54 inh; 460 tested, 8% active; AC50, µM (top dose mostly 35 µM), for inactives: at the top dose activity change, negative = DNA binding;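 active means signal drop giving an AC50 within twice the top valid tested concentration of each sample, actives reach about 35 µM in these data; inactive means activity opposite to expected, plus the rest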;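 further: polarization loss reports compound binding to salmon sperm DNA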
# Yeast UUG start-2: modulators of start codon recognition fidelity in yeast. shares compounds with Yeast UUG start-1. S. cerevisiae UUG-start firefly luciferase, luminescence, 4 h; 100% means double the DMSO signal. activation, % at 38 µM. 540 tested, under 10 active;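 active means signal increase whose fitted curve reaches an absolute level of 40 at a concentration under 10 µM; inactive means activity opposite to the expected increase, or the rest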
# DNA binder FP: binds DNA, flagging false RAD52 inhibitor hits; AC50, µM; AID 652128; 1,000 tested, 8% active; shares compounds with RAD52 inh; Salmon sperm DNA/acridine orange FP displacement, DNA binding;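 active means fitted half-maximal concentration for signal loss at or below twice the highest dose tested, in every separate run, actives reach about 64 µM in these data; inconclusive means runs disagree, or flat partial signal loss, or poor fit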
# Numbers without * were called inactive; i = inactive; ? = inconclusive; . = no result. Sampled rows, rich in hits. Any-hit rate of the full collection: about 1.5%.
SMILES,RAD54 inh,PglD inh,RAD52 inh,Yeast UUG start-1,GSIS activator,CASP6 VEID inh,Rad54 DNA ctr,DNA binder FP,others
CCCCN(C)C(=O)c1cc2c(Cl)nc3ccccc3c2s1,-9,-1,0,-5,-4,0,.,.,
CN(C)CCNC(=O)c1cccc(-c2cnc3c(NC=O)cc(-c4ccc(F)cc4)cn23)c1,55*,1,92*,-1,10,-45,1%,i,
COc1ccc(-c2cc(NC=O)c3ncc(-c4cccc(C(=O)NCCN(C)C)c4)n3c2)cc1,69*,0,90*,-34,29,-69,17%,i,
CN(C)CCNC(=O)c1cccc(-c2cnc3c(NC=O)cc(-c4cccc(F)c4)cn23)c1,?,-5,91*,-13,.,-30,-3%,i,
COc1ccc(-c2cc(NC=O)c3ncc(-c4cccc(OC)c4)n3c2)cc1,0,-15,-37,-14,25,2,.,.,
CN(C)C(=O)c1cccc(-c2cnc3c(NC=O)cc(-c4cc(F)c(F)c(F)c4)cn23)c1,6,1,-31,-15,-14,6,.,.,
COc1ccc(C)c2sc(N(CCN(C)C)C(=O)c3ccc4ccccc4c3)nc12,52*,-5,73*,4,-29,-23,-16%,i,
Cc1cccc(N2CCN(C(=O)C(Cc3ccccc3)n3cccc3)CC2)c1C (configuration not stated),4,4,-60,-8,.,-4,.,.,
COC(=O)c1c(NC(=O)c2ccc(S(=O)(=O)N3CC(C)OC(C)C3)cc2)sc2c1CCN(C)C2 (configuration not stated),50*,1,51*,-15,5,-4,16%,i,
Cc1c(NC(=O)c2cc(Br)ccc2Cl)cccc1-n1cnnn1,10,-7,-11,-17,-2,1,.,.,
Cc1ccc(NC(=S)NCCc2ccccc2)c(C)c1,.,.,.,.,10,.,.,.,
COc1cccc(-c2ccccc2[C@@H]2[C@H](C#N)N(C(=O)Cc3ccccc3)[C@H]2CO)c1,.,.,-2,.,-12,2,.,.,
CN(CCO)C(=O)c1c(NC(=O)c2ccccc2)sc2c1CCCC2,-3,-1,-3,-13,5,-1,.,.,
CN(C)CCNC(=O)c1c(NC(=O)c2ccccc2)sc2c1CCCC2,58*,2,53*,-3,12,-5,-7%,i,
COc1ccc(-c2nc(C(=O)NCCCN3CCOCC3)cc3c2[nH]c2ccccc23)cc1OC,94*,0,83*,-18,-2,1,-21%,i,

# Brought forward from above: 5 compounds, then new ones.
SMILES,RAD54 inh,PglD inh,RAD52 inh,Yeast UUG start-1,GSIS activator,CASP6 VEID inh,Rad54 DNA ctr,DNA binder FP,others
Cc1ccc(NC(=S)NCCc2ccccc2)c(C)c1,.,.,.,.,10,.,.,.,
COc1cccc(-c2ccccc2[C@@H]2[C@H](C#N)N(C(=O)Cc3ccccc3)[C@H]2CO)c1,.,.,-2,.,-12,2,.,.,
CN(CCO)C(=O)c1c(NC(=O)c2ccccc2)sc2c1CCCC2,-3,-1,-3,-13,5,-1,.,.,
CN(C)CCNC(=O)c1c(NC(=O)c2ccccc2)sc2c1CCCC2,58*,2,53*,-3,12,-5,-7%,i,
COc1ccc(-c2nc(C(=O)NCCCN3CCOCC3)cc3c2[nH]c2ccccc23)cc1OC,94*,0,83*,-18,-2,1,-21%,i,
COc1ccc(Nc2cc(C(=O)NCCCN3CCOCC3)c3ccccc3n2)cc1OC,-4,2,.,3,3,.,.,.,
CCCCCCCCC(=O)NNC(=O)c1c(O)c2ccccc2n(CC)c1=O,.,.,-6,.,.,0,.,.,
CN(C)CCN(C(=O)CN1C(=O)c2ccccc2C1=O)c1nc2cc3c(cc2s1)OCO3,60*,-3,58*,-3,25,-7,-9%,i,
CCN(CC)CCN(C(=O)CN1C(=O)c2ccccc2C1=O)c1nc2cc3c(cc2s1)OCO3,35,0,-3,0,-16,-6,.,.,
COc1ccc(NC(=O)c2ccc(-c3ccc(-c4noc(C)n4)cc3C)cc2)cc1N1CCN(C)CC1,54*,-7,101*,7,.,.,3%,i,
CNc1nc(-c2c[nH]c3ccccc23)cs1,5,10,.,-24,.,.,.,.,
CN1CCN(CC(=O)Nc2nc(-c3c[nH]c4ccccc34)cs2)CC1,93*,1,96*,-13,7,-47,-8%,i,
COc1ccc2oc3cc(NCCN(C)C)ccc3c(=O)c2c1,86*,2,79*,-31,4,-6,1%,i,
COc1ccc2c(=O)c3ccccc3oc2c1,-1,2,-11,-6,.,-7,.,.,
CC(C)(C)C(=O)COC(=O)c1ccc(O)cc1,2,0,.,387*,.,.,.,.,Yeast UUG start-2=20
O=C(COC(=O)/C=C/c1cccc(C(F)(F)F)c1)NC(=O)NCc1ccco1,-8,4,-14,-11,9,-2,.,.,
O=C(NCc1ccco1)/C(=C\c1ccco1)NC(=O)c1cccs1,.,.,-15,.,2,0,.,.,
CCN(CC)CC#CC(O)(c1ccccc1)c1ccccc1,.,.,-9,.,-1,0,.,.,Yeast UUG start-2=15
CN(C)CCC#CC(O)(c1ccccc1)c1ccccc1,8,3,.,-6,5,.,.,.,
CCN(CC)CC#CCC(OC)(c1ccccc1)c1ccccc1,.,.,-5,.,.,-1,.,.,Yeast UUG start-2=4
O=C(NNc1cc(Cl)ccc1Cl)c1cccs1,-22,5,-11,-11,-3,2,.,.,
COc1ccc(S(=O)(=O)N(C)C[C@@H]2Oc3ncc(-c4cccc(C(F)(F)F)c4)cc3C(=O)N([C@H](C)CO)C[C@@H]2C)cc1,-2,-6,1,-17,-13,-1,.,.,
C[C@@H](NC(=O)C[C@@H]1CC[C@H](NC(=O)Nc2ccc3c(c2)OCO3)[C@@H](CO)O1)c1ccccc1,0,2,-6,127*,8,8,.,.,Yeast UUG start-2=i
C[C@@H](NC(=O)C[C@@H]1CC[C@H](NC(=O)C2CCOCC2)[C@H](CO)O1)c1ccccc1,0,-1,2,171*,15,-2,.,.,Yeast UUG start-2=i
C[C@@H](NC(=O)C[C@H]1CC[C@H](NC(=O)C2CCOCC2)[C@H](CO)O1)c1ccccc1,12,-4,-15,-9,1,-3,.,.,
C[C@H](NC(=O)C[C@@H]1CC[C@H](NC(=O)Nc2ccc3c(c2)OCO3)[C@H](CO)O1)c1ccccc1,3,-2,1,-15,-8,0,.,.,
O=C(C[C@@H]1C[C@H]2c3cc(NC(=O)C4CCC4)ccc3O[C@H]2[C@H](CO)O1)NCC1CC1,-2,4,-12,104*,3,3,.,.,Yeast UUG start-2=i
COCC(=O)Nc1ccc2c(c1)[C@@H]1C[C@H](CC(=O)NC3CCCCC3)O[C@H](CO)[C@@H]1O2,-5,1,20,107*,-1,-2,.,.,Yeast UUG start-2=i
O=C(C[C@@H]1C[C@@H]2c3cc(NC(=O)C4CCC4)ccc3O[C@@H]2[C@H](CO)O1)NCC1CC1,-6,0,0,-7,2,1,.,.,
O=C(C[C@@H]1C[C@H]2c3cc(NC(=O)C4CCOCC4)ccc3O[C@H]2[C@@H](CO)O1)NC1CCCC1,-5,2,-3,-1,3,-2,.,.,
O=C(C[C@H]1C[C@@H]2c3cc(NC(=O)C4CCOCC4)ccc3O[C@@H]2[C@H](CO)O1)NC1CCCC1,-12,2,-2,102*,4,-3,.,.,Yeast UUG start-2=i

# From PubChem BioAssay
